These are literature values, as cited in patent US5770687A, “Comformationally constrained backbone cyclized somatostatin analogs” (Peptor Limited, priority 1996, dated 1998).

Protein sequences, listed by entry. Tags and fused reporters are not part of them. Lines headed by an entry give the natural chain unless they say otherwise; changes in a name come on top.
UniProt P32745, whole entry, species assumed: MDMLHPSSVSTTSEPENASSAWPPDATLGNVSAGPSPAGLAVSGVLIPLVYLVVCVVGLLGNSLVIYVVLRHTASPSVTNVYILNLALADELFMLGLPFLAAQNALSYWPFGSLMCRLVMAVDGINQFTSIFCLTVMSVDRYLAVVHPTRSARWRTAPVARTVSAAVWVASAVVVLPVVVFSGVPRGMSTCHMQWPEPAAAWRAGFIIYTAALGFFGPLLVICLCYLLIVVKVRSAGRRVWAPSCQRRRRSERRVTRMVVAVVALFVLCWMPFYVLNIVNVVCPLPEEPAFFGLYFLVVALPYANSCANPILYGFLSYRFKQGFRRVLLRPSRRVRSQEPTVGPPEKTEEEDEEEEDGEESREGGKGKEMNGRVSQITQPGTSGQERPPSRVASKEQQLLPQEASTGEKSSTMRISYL
UniProt P30872, whole entry, species assumed: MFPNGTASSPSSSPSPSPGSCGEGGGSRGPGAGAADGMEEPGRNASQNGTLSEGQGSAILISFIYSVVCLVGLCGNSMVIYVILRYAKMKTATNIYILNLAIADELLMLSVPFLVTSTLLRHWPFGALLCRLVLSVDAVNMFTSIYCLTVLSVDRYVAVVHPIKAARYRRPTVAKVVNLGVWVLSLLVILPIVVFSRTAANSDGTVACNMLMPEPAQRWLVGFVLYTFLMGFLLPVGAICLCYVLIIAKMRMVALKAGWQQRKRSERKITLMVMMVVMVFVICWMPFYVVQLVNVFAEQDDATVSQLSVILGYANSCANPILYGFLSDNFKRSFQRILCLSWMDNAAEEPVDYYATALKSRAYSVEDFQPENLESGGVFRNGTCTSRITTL
UniProt P35346: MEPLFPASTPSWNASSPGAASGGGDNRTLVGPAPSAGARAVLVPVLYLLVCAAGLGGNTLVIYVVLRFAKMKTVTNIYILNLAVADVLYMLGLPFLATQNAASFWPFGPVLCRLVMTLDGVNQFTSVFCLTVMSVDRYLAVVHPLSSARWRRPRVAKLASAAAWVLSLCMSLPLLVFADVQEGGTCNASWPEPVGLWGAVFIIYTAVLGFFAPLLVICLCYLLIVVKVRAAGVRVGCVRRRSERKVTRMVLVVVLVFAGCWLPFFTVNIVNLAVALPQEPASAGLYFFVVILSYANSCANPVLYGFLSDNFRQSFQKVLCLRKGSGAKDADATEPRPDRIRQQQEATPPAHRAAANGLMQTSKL
UniProt P31391, whole entry, species assumed: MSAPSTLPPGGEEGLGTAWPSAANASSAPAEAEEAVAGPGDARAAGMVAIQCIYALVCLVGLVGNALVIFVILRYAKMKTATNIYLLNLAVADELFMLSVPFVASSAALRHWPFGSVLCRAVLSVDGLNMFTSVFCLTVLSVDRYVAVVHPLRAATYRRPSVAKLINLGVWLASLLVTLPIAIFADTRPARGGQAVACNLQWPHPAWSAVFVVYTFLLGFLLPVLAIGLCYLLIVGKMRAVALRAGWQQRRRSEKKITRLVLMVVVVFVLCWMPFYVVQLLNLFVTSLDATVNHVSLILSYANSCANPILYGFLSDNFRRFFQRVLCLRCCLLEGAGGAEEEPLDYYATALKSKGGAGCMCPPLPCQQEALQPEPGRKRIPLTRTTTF

The target of one data set is SSTR-3 (Homo sapiens, UniProt P32745). To be noted: Table 22; known SST analogs, literature values; cited from earlier work.
The next data set deals with SSTR-1 (Homo sapiens, UniProt P30872). To be noted: Table 22; known SST analogs, literature values; cited from earlier work.
The target of the next data set is human SSTR-5 (Homo sapiens, UniProt P35346). To be noted: Table 22; known SST analogs, literature values; read-out: IC50 value hSSTR 5; cited from earlier work.
A further data set concerns the target SSTR-4 (Homo sapiens, UniProt P31391). To be noted: Table 22; known SST analogs, literature values; cited from earlier work.

On to “DPhe^5 -Phe^6 -Phe^7 -DTrp^8 -Lys^9 -Thr^10 -Phe^11 -Thr^12 -NH2 [BIM-23052]”, for which the IC50 (as a rule, the concentration at which inhibition is half-maximal) at SSTR-3 was 0.4 nM; at SSTR-1, 23 nM.

On to “DPhe^5 -cyclo(Cys^6 -Tyr^7 -DTrp^8 -Lys^9 -Val^10 -Cys^11)-Trp^12 -NH2 [RC-160]”, for which the IC50 on human SSTR-5 was 21 nM; at SSTR-4 it was 620 nM; at SSTR-3, 0.1 nM; at SSTR-1, 200 nM.
